In patent US20130281504A1, “Reduction of Microglia-Mediated Neurotoxicity by KCa3.1 Inhibition” (THE REGENTS OF THE UNIVERSITY OF CALIFORNIA, priority 2010, published 2013):

Columns and labels:
[1] = Pharmacokinetics and brain concentrations in rats (HPLC/MS); details: rat; for concentration at 12 h: ip
Description: At various time points following the injection approximately 100-200 μl of blood were collected from a tail nick into EDTA blood sample collection tubes. […] Blood samples were taken by cardiac puncture under deep isoflurane anesthesia. The right atrium was then cut open and 20 mL of saline slowly injected into the left ventricle to flush the blood out of the circulation. The rats were then sacrificed and brains removed. Plasma was separated by centrifugation and samples stored at −80° C. pending analysis. Plasma and homogenized brain samples were purified using C18 solid phase extraction (SPE) cartridges. […] LC/MS analysis was performed with a Hewlett-Packard 1100 series HPLC stack equipped with a Merck KGaA RT 250-4 LiChrosorb RP-18 column interfaced to a Finnigan LCQ Classic MS. The mobile phase consisted of acetonitrile and water, both containing 0.2% formic acid.

microglia [2] = assay: AβO-induced microglia proliferation/activation (cell number); type: cell-based, mouse
retinal ganglion cell = details: rats, intraocular injection; cited from earlier work
microglia [3] = tested on: microglia

Clc1ccccc1C(c1ccccc1)(c1ccccc1)n1cccn1 [TRAM-34, 1-[(2-chlorophenyl)diphenylmethyl]-1H-pyrazole]
concentration at 12 h ([1]; Wistar, in vivo, 10 mg/kg, homogenized brain tissue concentration, i.p. 10 mg/kg, within 12 hours): 191 ± 41 nM | concentration at 12 h ([1]; Wistar, in vivo, 10 mg/kg, plasma concentration at the time of sacrifice, MCAO rats, 10 mg/kg i.p. twice daily 7 days, 12 hours after last application, mean±SD): 91 ± 46 nM | concentration at 12 h ([1]; Wistar, in vivo, 10 mg/kg, plasma concentration, i.p. 10 mg/kg, within 12 hours): 58 ± 9 nM | concentration at 12 h ([1]; Wistar, in vivo, 40 mg/kg, plasma and brain concentrations, i.p. 40 mg/kg, at 12 hours): ~400 nM | concentration at 12 h ([1]; Wistar, in vivo, 40 mg/kg, plasma concentration at the time of sacrifice, MCAO rats, 40 mg/kg i.p. twice daily 7 days, 12 hours after last application, mean±SD): 662 ± 416 nM | concentration at 24 h ([1]; male, Wistar, in vivo, iv, 10 mg/kg, total plasma concentration, i.v. 10 mg/kg, at 24 hours): 250 nM | bioavailability following s.c. administration ([1]; compared to i.v. or i.p.): very poor | plasma and brain concentrations ([1]; i.p. 40 mg/kg, for 8 hours): exceeding 1 μM | brain penetration ([1]; i.p. injection): effectively penetrates into the brain | total plasma concentration, peak ([1]; i.v. 10 mg/kg, 8 min after application): 40 µM | AβO-induced microglia activation / proliferation (microglia [2]; 20 nM AβO 24 hrs, 100 ng/ml poly I, 10 μg/ml E-20, 20 μM doxycycline, 1 μM TRAM-34, FIG. 3): block | microglia viability, compound alone (cell count and NO generation) (microglia [2]; TRAM-34 alone): did not affect microglia viability | retinal ganglion cell degeneration after optic nerve transection (retinal ganglion cell): reduced retinal ganglion cell degeneration | beneficial activities of microglia such as migration and phagocytosis (microglia [3]): does not affect
